This passage reports Ki results from patent US20220218639A1.

One test addresses T1, δ-plasmin (Homo sapiens, UniProt P00747, DEL181-559).
T1 construct: made in house; host or cells: E. coli (T7 expression system, pET 24b(+))
Put plainly: S-2251 inhibition assay (Dixon plot), δ-plasmin. Format: biochemical. The settings on record: S-2251 100, 350, 750 μM, enzyme 1.0 μg/mL, PBS pH 7.4, unit inferred.

Another test deals with plasmin (Homo sapiens, UniProt P00747). Put plainly: S-2251 inhibition assay (Dixon plot), plasmin. The class given is biochemical. Also on record: purchased Sigma-Aldrich. The settings on record: S-2251 100, 350, 750 μM, enzyme 1.0 μg/mL, PBS pH 7.4, unit inferred. The protocol: Enzyme Kinetic and Inhibition Assays. All enzymatic assays were conducted in phosphate buffered saline (PBS, pH 7.4) at 25° C. on a Molecular Devices SpectraMax Plus 96 well plate reader. The S-2251 assay took advantage of a shift in absorbance of the substrate upon cleaving that could be monitored at a wavelength of 405 nm to determine enzyme kinetics as well as competitive inhibition Ki values for plasmin and its derivatives. KM, Vmax and Kcat were determined using a Lineweaver-Burke plot in which the concentration of plasmin (1.0 μg/mL) was held constant across a range of S-2251 substrate concentrations (0-750 μM) where the y-intercept=1/Vmax and slope=KM/Vmax. Initial velocities were determined by the slope of the first 60 seconds of reaction with the S-2251 substrate. […]
Inhibition Assays: Inhibition assays were carried out at a fixed plasmin concentration in the presence of a range of small molecule inhibitor concentrations from (0-1500 μM) and at least three different S-2251 substrate concentrations ranging from (0-750 μM). Ki values for both full length/native plasmin (sigma plasmin) and delta-plasmin for the small molecule inhibitors and nanoparticles were calculated based on the x-axis value at the negative intersection point of the inhibition curves at the different S-2251 substrate concentrations at a constant plasmin concentration. […]

As usually defined, the Ki is a measure of affinity in units of concentration, obtained from inhibition or displacement. Lower therefore signals a stronger hold on the target. Take `N=C(N)c1ccccc1` [Benzamidine]: the Ki at δ-plasmin was 161 ± 11.7 µM; at plasmin, 32.2 ± 3 µM.
